According to patent US11129820B2, “Ferroportin-inhibitor salts” (Vifor (International) AG, priority 2017, dated 2021):

How the values were obtained:
[1] = system: beta2-microglobulin deficient (b2m−/−) mice; test: Prevention of iron overload in beta2-microglobulin deficient mice; assay type: in vivo, mouse; conditions: 14 days
Description: In addition, feeding 3 week old b2m−/− mice a diet with low iron content (LID) immediately after weaning prevents liver iron loading by age of 6-7 weeks. The efficacy of the Fpn inhibitors to prevent liver iron accumulation in b2m−/− mice is investigated. Three weeks old b2−/− mice fed LID are dosed with either Fpn inhibitor or vehicle (methylcellulose; 10 ml/kg). Mice have access to drinking water supplemented with 1 mM ^58Fe(II)-sulfate and 10 mM ascorbic acid. Dosing of Fpn inhibitor or vehicle followed by exposure to iron-containing water is repeated for 14 days. Mice are euthanized and the liver and spleen iron contents are analyzed by ICP-OES (all iron isotopes) and liver tissue is also analyzed for ^58Fe concentration (ICP-MS).
Livers and spleens are collected after 14 day treatment (p.o.; b.i.d) of beta2-microglobulin deficient mice with the indicated doses of Fpn inhibitors. Total liver and spleen tissue iron concentrations are measured using ICP-OES and ^58Fe liver concentrations are determined with ICP-MS. Relative changes (%) of tissue iron levels are calculated by normalizing the difference between the averages of tissue iron values of animals dosed with the Fpn inhibitors and those of vehicle-treated animals with the average of vehicle controls.

[2] = system: Hbb th3/+ mice; test: Mouse model of β-thalassemia intermedia (Hbb th3/+ mice); assay type: in vivo; conditions: 60 mg/kg twice daily for 20-46 days, % change to vehicle
Text: Based on these findings and published studies (Schmidt P J, et al, Blood 2013, Guo S, et al, JCI, 2013 and Casu C. et al, Blood, 2016) Fpn inhibitors are examined with respect to its capacity to prevent iron loading and improve erythropoiesis in thalassemia intermedia by restricting iron absorption and reutilization from senescent erythrocytes. The efficacy of Fpn inhibitors is investigated using a mouse model of transfusion-independent β-thalassemia. Mice with heterozygous deletion of β 1 and β 2 globin genes (called Hbb th3/+ mice) develop transfusion-independent anemia, ineffective erythropoiesis, splenomegaly and secondary iron overload in spleen, liver and kidneys. […]
The change of hemoglobin levels in compound-dosed compared to vehicle-treated group reaches 19-22 g/L by the study end. Additional hematologic parameters are measured in terminal blood using automated blood cell analyzer. […]
Additionally, reactive oxygen species (ROS) are detected in bone marrow cells using a fluorescent indicator, CM-H2DCFDA (Thermo Fisher Scientific, Cat. C6827).
Table 10 Efficacy of Ferroportin inhibitors in a mouse model of thalassemia intermedia (Hbb th3/+ mice). […] Data are expressed as difference to the vehicle control group for hemoglobin and as % change to the vehicle control group for all other parameter shown

[3] = female ♀, 60 mg/kg p.o. b.i.d., 60 mg/kg
[4] = male ♂, 60 mg/kg p.o. b.i.d., 60 mg/kg

O=C(NCc1ncccc1F)c1csc(CCNCc2nc3ccccc3[nH]2)n1 [Example Compound No. 40]
Total Liver Iron Reduction (%) [1, 3]: 67* % and 66% | ^58Fe Liver Iron Reduction (%) [1, 3]: 80* % and 67% | Total Spleen Iron Increase (%) ([1]; male ♂, 20 mg/kg p.o. b.i.d.): 25% | Total Liver Iron Reduction (%) [1, 4]: 69*** % and 85** % | Total Spleen Iron Increase (%) [1, 4]: 24% and 36% | ^58Fe Liver Iron Reduction (%) [1, 4]: 81*** % and 95** % | Decrease in leukocyte counts by 20/60 mg/kg compound [2]: 36% | Decrease in serum erythropoietin by 20/60 mg/kg compound [2]: 37%

Values joined by “and” are separate entries in the source; they are usually repeats but may differ in a detail not shown here. Equal entries are not always repeated. Marks after values point to notes of the source that are not given here.
